Test results: article PMC8496732

B1: mCherry-RAB33B wild type [human] / EGFP-ATG16L1 wild type [human] (parent)
chain 1: MAEEMESSLEASFSSSGAVSGASGFLPPARSRIFKIIVIGDSNVGKTCLTYRFCAGRFPDRTEATIGVDFRERAVEIDGERIKIQLWDTAGQERFRKSMVQHYYRNVHAVVFVYDMTNMASFHSLPSWIEECKQHLLANDIPRILVGNKCDLRSAIQVPTDLAQKFADTHSMPLFETSAKNPNDNDHVEAIFMTLAHKLKSHKPLMLSQPPDNGIILKPEPKPAMTCWC
chain 2: MSSGLRAADFPRWKRHISEQLRRRDRLQRQAFEEIILQYNKLLEKSDLHSVLAQKLQAEKHDVPNRHEISPGHDGTWNDNQLQEMAQLRIKHQEELTELHKKRGELAQLVIDLNNQMQRKDREMQMNEAKIAECLQTISDLETECLDLRTKLCDLERANQTLKDEYDALQITFTALEGKLRKTTEENQELVTRWMAEKAQEANRLNAENEKDSRRRQARLQKELAEAAKEPLPVEQDDDIEVIVDETSDHTEETSPVRAISRAATKRLSQPAGGLLDSITNIFGRRSVSSFPVPQDNVDTHPGSGKEVRVPATALCVFDAHDGEVNAVQFSPGSRLLATGGMDRRVKLWEVFGEKCEFKGSLSGSNAGITSIEFDSAGSYLLAASNDFASRIWTVDDYRLRHTLTGHSGKVLSAKFLLDNARIVSGSHDRTLKLWDLRSKVCIKTVFAGSSCNDIVCTEQCVMSGHFDKKIRFWDIRSESIVREMELLGKITALDLNPERTELLSCSRDDLLKVIDLRTNAIKQTFSAPGFKCGSDWTRVVFSPDGSYVAAGSAEGSLYIWSVLTGKVEKVLSKQHSSSINAVAWSPSGSHVVSVDKGCKAVLWAQY

Variants of: B1
Assay: FLIM-FRET in live HeLa cells
Conditions: with EGFP-ATG16L1 wild type [human], EBSS starvation, read off a plot

| screen value (30 min) [ns] | screen value (60 min) [ns] | screen value (90 min) [ns] | screen value (120 min) [ns] | Variant |
| --- | --- | --- | --- | --- |
| 2.29 | 2.27 | 2.25 | 2.24 | chain 1 I66A F95A |
| 2.31 | 2.31 | 2.3 | 2.29 | chain 1 K35A Q85A |
